# Results reported in patent US20090099157A1, “TETRAHYDRO-PYRAZOLO-PYRIDINE THIOETHER MODULATORS OF CATHEPSIN S” (priority 2007, published 2009).
# Chains of the proteins cited; added tags and fusions are not shown. Residues count along the entry.
# UniProt P25774, 115-331: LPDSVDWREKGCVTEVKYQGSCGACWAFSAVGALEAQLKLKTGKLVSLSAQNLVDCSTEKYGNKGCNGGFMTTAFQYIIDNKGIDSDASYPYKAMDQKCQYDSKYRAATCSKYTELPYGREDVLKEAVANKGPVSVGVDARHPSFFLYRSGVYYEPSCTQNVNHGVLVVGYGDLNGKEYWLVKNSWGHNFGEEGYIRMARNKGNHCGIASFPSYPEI
# Target: Recombinant human cathepsin S (CatS) (Homo sapiens, UniProt P25774)
# Assay: biochemical
row,SMILES,pIC50
1,"CS(=O)(=O)N1CCc2c(c(-c3ccc(C(F)(F)F)c(SCCN4CCCCC4)c3)nn2CC(O)CN2CCC(N3CCCC3=O)CC2)C1 (stereo not shown) [Example 157, 1-(1-{2-Hydroxy-3-[5-(methylsulfonyl)-3-{3-[(2-piperidin-1-ylethyl)sulfanyl]-4-(trifluoromethyl)phenyl}-4,5,6,7-tetrahydro-1H-pyrazolo[4,3-c]pyridin-1-yl]propyl}piperidin-4-yl)pyrrolidin-2-one]",7.40
2,"CS(=O)(=O)N1CCc2c(c(-c3ccc(C(F)(F)F)c(SCCN4CCCCC4CO)c3)nn2CCCN2CCC(N3CCCC3=O)CC2)C1 (stereo not shown) [Example 39, 1-{1-[3-(3-{3-[2-(2-Hydroxymethyl-piperidin-1-yl)-ethylsulfanyl]-4-trifluoromethyl-phenyl}-5-methanesulfonyl-4,5,6,7-tetrahydro-pyrazolo[4,3-c]pyridin-1-yl)-propyl]-piperidin-4-yl}-pyrrolidin-2-one]",6.55
3,"CC(=O)N1CCN(CCSc2cc(-c3nn(CC(O)CN4CCN(c5ccccc5)CC4)c4c3CN(S(C)(=O)=O)CC4)ccc2C(F)(F)F)CC1 (stereo not shown) [Example 826, 1-{3-[3-{[2-(4-Acetylpiperazin-1-yl)ethyl]sulfanyl}-4-(trifluoromethyl)phenyl]-5-(methylsulfonyl)-4,5,6,7-tetrahydro-1H-pyrazolo[4,3-c]pyridin-1-yl}-3-(4-phenylpiperazin-1-yl)propan-2-ol]",6.85
4,"CC1(C)CCN(C[C@@H](O)Cn2nc(-c3ccc(C(F)(F)F)c(SCCN4CCC(F)CC4)c3)c3c2CCN(S(C)(=O)=O)C3)CC1 [Example 561, (2R)-1-(4,4-Dimethylpiperidin-1-yl)-3-{3-[3-{[2-(4-fluoropiperidin-1-yl)ethyl]sulfanyl}-4-(trifluoromethyl)phenyl]-5-(methylsulfonyl)-4,5,6,7-tetrahydro-1H-pyrazolo[4,3-c]pyridin-1-yl}propan-2-ol]",6.68
5,"CS(=O)(=O)N1CCc2c(c(-c3ccc(C(F)(F)F)c(SCCNC4CC4)c3)nn2CCCN2CCC(N3CCCC3=O)CC2)C1 [Example 524, 1-[1-(3-{3-[3-{[2-(Cyclopropylamino)ethyl]sulfanyl}-4-(trifluoromethyl)phenyl]-5-(methylsulfonyl)-4,5,6,7-tetrahydro-1H-pyrazolo[4,3-c]pyridin-1-yl}propyl)piperidin-4-yl]pyrrolidin-2-one]",6.70
6,"COc1cccc(N2CCN(CC(O)Cn3nc(-c4ccc(C(F)(F)F)c(SCCN5CCC(F)(F)C5)c4)c4c3CCNC4)CC2)c1 (stereo not shown) [Example 581, 1-{3-[3-{[2-(3,3-Difluoropyrrolidin-1-yl)ethyl]sulfanyl}-4-(trifluoromethyl)phenyl]-4,5,6,7-tetrahydro-1H-pyrazolo[4,3-c]pyridin-1-yl}-3-{4-[3-(methyloxy)phenyl]piperazin-1-yl}propan-2-ol]",6.26
7,"CC(C)(C)C1CCN(C[C@H](O)Cn2nc(-c3ccc(C(F)(F)F)c(SCCN4CCC(F)CC4)c3)c3c2CCN(S(C)(=O)=O)C3)CC1 [Example 205, (2S)-1-[4-(1,1-Dimethylethyl)piperidin-1-yl]-3-{3-[3-{[2-(4-fluoropiperidin-1-yl)ethyl]sulfanyl}-4-(trifluoromethyl)phenyl]-5-(methylsulfonyl)-4,5,6,7-tetrahydro-1H-pyrazolo[4,3-c]pyridin-1-yl}propan-2-ol]",7.52
8,"Oc1cccc(N2CCN(CC(O)Cn3nc(-c4ccc(C(F)(F)F)c(SCCN5CCCCC5)c4)c4c3CCNC4)CC2)c1 (stereo not shown) [Example 383, 3-{4-[2-Hydroxy-3-(3-{3-[(2-piperidin-1-ylethyl)sulfanyl]-4-(trifluoromethyl)phenyl}-4,5,6,7-tetrahydro-1H-pyrazolo[4,3-c]pyridin-1-yl)propyl]piperazin-1-yl}phenol]",6.10
9,"CS(=O)(=O)N1CCc2c(c(-c3ccc(C(F)(F)F)c(SCCN4CCOCC4)c3)nn2CC(O)CN2CCN(c3c(Cl)cncc3Cl)CC2)C1 (stereo not shown) [Example 868, 1-[4-(3,5-Dichloropyridin-4-yl)piperazin-1-yl]-3-[5-(methylsulfonyl)-3-{3-[(2-morpholin-4-ylethyl)sulfanyl]-4-(trifluoromethyl)phenyl}-4,5,6,7-tetrahydro-1H-pyrazolo[4,3-c]pyridin-1-yl]propan-2-ol]",7.40
10,"CC1C(=O)NCCN1CCSc1cc(-c2nn(CCCN3CCCCC3)c3c2CN(S(C)(=O)=O)CC3)ccc1C(F)(F)F (stereo not shown) [Example 374, 3-Methyl-4-[2-({5-[5-(methylsulfonyl)-1-(3-piperidin-1-ylpropyl)-4,5,6,7-tetrahydro-1H-pyrazolo[4,3-c]pyridin-3-yl]-2-(trifluoromethyl)phenyl}sulfanyl)ethyl]piperazin-2-one]",6.08
11,"CC1CCN(CC(O)Cn2nc(-c3ccc(C(F)(F)F)c(SCCN4CCCC4)c3)c3c2CCN(S(C)(=O)=O)C3)CC1 (stereo not shown) [Example 345, 1-(4-Methylpiperidin-1-yl)-3-[5-(methylsulfonyl)-3-{3-[(2-pyrrolidin-1-ylethyl)sulfanyl]-4-(trifluoromethyl)phenyl}-4,5,6,7-tetrahydro-1H-pyrazolo[4,3-c]pyridin-1-yl]propan-2-ol]",6.59
12,"CC1(C)CCN(CC(O)Cn2nc(-c3ccc(C(F)(F)F)c(SCCN4CCCC4)c3)c3c2CCN(S(C)(=O)=O)C3)CC1 (stereo not shown) [Example 378, 1-(4,4-Dimethylpiperidin-1-yl)-3-[5-(methylsulfonyl)-3-{3-[(2-pyrrolidin-1-ylethyl)sulfanyl]-4-(trifluoromethyl)phenyl}-4,5,6,7-tetrahydro-1H-pyrazolo[4,3-c]pyridin-1-yl]propan-2-ol]",6.25
13,"CC(C)N(C(=O)N1CCc2c(c(-c3ccc(C(F)(F)F)c(SCCN4CCC(F)CC4)c3)nn2C[C@@H](O)CN2CCCCC2)C1)C(C)C [Example 635, 3-[3-{[2-(4-Fluoropiperidin-1-yl)ethyl]sulfanyl}-4-(trifluoromethyl)phenyl]-1-[(2S)-2-hydroxy-3-piperidin-1-ylpropyl]-N,N-bis(1-methylethyl)-1,4,6,7-tetrahydro-5H-pyrazolo[4,3-c]pyridine-5-carboxamide]",6.03
14,"CS(=O)(=O)N1CCc2c(c(-c3ccc(C(F)(F)F)c(SCCN4CCOCC4)c3)nn2CC(O)CN2CCC(O)(c3ccccc3)CC2)C1 (stereo not shown) [Example 722, 1-{2-Hydroxy-3-[5-(methylsulfonyl)-3-{3-[(2-morpholin-4-ylethyl)sulfanyl]-4-(trifluoromethyl)phenyl}-4,5,6,7-tetrahydro-1H-pyrazolo[4,3-c]pyridin-1-yl]propyl}-4-phenylpiperidin-4-ol]",6.82
15,"CN(C)c1ccc2c(n1)n(C1CCN(CC(O)Cn3nc(-c4ccc(C(F)(F)F)c(SCC(=O)N5CC[C@H](O)C5)c4)c4c3CCN(S(C)(=O)=O)C4)CC1)c(=O)n2C (stereo partly drawn) [Example 894, 5-(Dimethylamino)-3-[1-(2-hydroxy-3-{3-[3-({2-[(3S)-3-hydroxypyrrolidin-1-yl]-2-oxoethyl}sulfanyl)-4-(trifluoromethyl)phenyl]-5-(methylsulfonyl)-4,5,6,7-tetrahydro-1H-pyrazolo[4,3-c]pyridin-1-yl}propyl)piperidin-4-yl]-1-methyl-1,3-dihydro-2H-imidazo[4,5-b]pyridin-2-one]",8.00
16,"CC(C)(C)C1CCN(CCSc2cc(-c3nn(C[C@@H](O)CN4CCCCC4)c4c3CN(S(C)(=O)=O)CC4)ccc2C(F)(F)F)CC1 [Example 219, (2S)-1-{3-[3-({2-[4-(1,1-Dimethylethyl)piperidin-1-yl]ethyl}sulfanyl)-4-(trifluoromethyl)phenyl]-5-(methylsulfonyl)-4,5,6,7-tetrahydro-1H-pyrazolo[4,3-c]pyridin-1-yl}-3-piperidin-1-ylpropan-2-ol]",6.43
17,"COC(=O)C(=O)N1CCc2c(c(-c3ccc(C(F)(F)F)c(SCCN4CCCCC4)c3)nn2CC(O)CN2CCC(N3CCCC3=O)CC2)C1 (stereo not shown) [Example 244, Methyl(1-{2-hydroxy-3-[4-(2-oxopyrrolidin-1-yl)piperidin-1-yl]propyl}-3-{3-[(2-piperidin-1-ylethyl)sulfanyl]-4-(trifluoromethyl)phenyl}-1,4,6,7-tetrahydro-5H-pyrazolo[4,3-c]pyridin-5-yl)(oxo)acetate]",7.70
18,"CS(=O)(=O)N1CCc2c(c(-c3ccc(C(F)(F)F)c(SCCN4CCOCC4)c3)nn2CC(O)CN2CCOCC2)C1 (stereo not shown) [Example 179, 1-[5-(Methylsulfonyl)-3-{3-[(2-morpholin-4-ylethyl)sulfanyl]-4-(trifluoromethyl)phenyl}-4,5,6,7-tetrahydro-1H-pyrazolo[4,3-c]pyridin-1-yl]-3-morpholin-4-ylpropan-2-ol]",6.08
19,"OC(CN1CCC(N2CCCC2)CC1)Cn1nc(-c2ccc(C(F)(F)F)c(SCCN3CCCCC3)c2)c2c1CCNC2 (stereo not shown) [Example 231, 1-(3-{3-[(2-Piperidin-1-ylethyl)sulfanyl]-4-(trifluoromethyl)phenyl}-4,5,6,7-tetrahydro-1H-pyrazolo[4,3-c]pyridin-1-yl)-3-(4-pyrrolidin-1-ylpiperidin-1-yl)propan-2-ol]",5.02
20,"CCS(=O)(=O)NCCSc1cc(-c2nn(CC(O)CN3CCC(N4CCCC4=O)CC3)c3c2CN(S(C)(=O)=O)CC3)ccc1C(F)(F)F (stereo not shown) [Example 772, N-[2-({5-[1-{2-Hydroxy-3-[4-(2-oxopyrrolidin-1-yl)piperidin-1-yl]propyl}-5-(methylsulfonyl)-4,5,6,7-tetrahydro-1H-pyrazolo[4,3-c]pyridin-3-yl]-2-(trifluoromethyl)phenyl}sulfanyl)ethyl]ethanesulfonamide]",7.57
21,"CC1(C)CCN(CC(O)Cn2nc(-c3ccc(C(F)(F)F)c(SCCN4CCC(F)CC4)c3)c3c2CCN(S(C)(=O)=O)C3)CC1 (stereo not shown) [Example 562, 1-(4,4-Dimethylpiperidin-1-yl)-3-{3-[3-{[2-(4-fluoropiperidin-1-yl)ethyl]sulfanyl}-4-(trifluoromethyl)phenyl]-5-(methylsulfonyl)-4,5,6,7-tetrahydro-1H-pyrazolo[4,3-c]pyridin-1-yl}propan-2-ol]",6.66
22,"O=C(CSc1cc(-c2nn(CC(O)CN3CCC(F)CC3)c3c2CNCC3)ccc1C(F)(F)F)N1CCCC1 (stereo not shown) [Example 296, 1-(4-Fluoropiperidin-1-yl)-3-(3-{3-[(2-oxo-2-pyrrolidin-1-ylethyl)sulfanyl]-4-(trifluoromethyl)phenyl}-4,5,6,7-tetrahydro-1H-pyrazolo[4,3-c]pyridin-1-yl)propan-2-ol]",5.38

# pIC50: −log10 of the molar value.
